Results taken from PubChem BioAssay AID425 (Sanford-Burnham Center for Chemical Genomics, 2006).
Where “and” joins values, the source holds several entries; their conditions need not be identical. Identical values can stand only once. This is a selection; strong and weak results do not stand in their true shares. Results with a measured potency or affinity are listed apart. Calls of active or inactive are those of the source. Rule as the data show it: active = inhibition above about 50%; inactive = the rest.

Protein sequences, listed by entry. Tags and fused reporters are not part of them.
UniProt Q64346, whole entry: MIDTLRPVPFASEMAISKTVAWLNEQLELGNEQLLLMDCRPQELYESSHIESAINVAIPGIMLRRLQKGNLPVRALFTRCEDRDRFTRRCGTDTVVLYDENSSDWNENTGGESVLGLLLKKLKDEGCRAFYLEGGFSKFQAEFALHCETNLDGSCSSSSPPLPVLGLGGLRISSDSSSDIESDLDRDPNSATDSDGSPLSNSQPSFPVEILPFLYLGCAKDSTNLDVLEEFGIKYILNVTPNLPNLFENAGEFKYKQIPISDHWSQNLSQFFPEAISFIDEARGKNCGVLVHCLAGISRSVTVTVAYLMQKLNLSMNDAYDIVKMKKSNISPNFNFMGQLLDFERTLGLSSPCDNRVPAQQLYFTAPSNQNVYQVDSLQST

Target: Dual specificity protein phosphatase 6 (Rattus norvegicus) (UniProt Q64346)
Test: MKP-3 phosphatase inhibitors, primary screen, biochemical, rat enzyme, in vitro (AID 425);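 also: plate controls were vehicle for no effect and reference inhibitor for full effect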
Settings: recombinant MKP-3 phosphatase activity, fluorescence; at 20 µM; active compounds read high

Row | Compound | inhibition
1 | Cc1ccc(NP(C)(=O)Oc2ccccc2)c(C)c1 (stereo not drawn) | inactive: -12.4%
2 | CP(=O)(NC(=O)Nc1ccccc1)Oc1ccccc1 (stereo not drawn) | inactive: -7.7%
3 | CCOP(C)(=S)SCC(=O)NC(C)C(=O)O (stereo not drawn) | inactive: -1.9% and inactive: -12.5%
4 | CP(=O)(Oc1ccccc1F)Oc1ccccc1F | inactive: -11.9%
5 | CN(C)CCOC(=O)C(O)(c1ccccc1)c1ccccc1 | inactive: -4.8%
6 | CP(=S)(Nn1cnnc1)Oc1ccccc1 (stereo not drawn) | inactive: 9.9%
7 | Cc1nc2ccc3ccccc3c2s1.O=[N+]([O-])c1cc([N+](=O)[O-])c(O)c([N+](=O)[O-])c1 | inactive: 6.1%
8 | CP(=O)(Oc1ccccc1)Oc1ccccc1 | inactive: -2.4%
9 | Cc1ccc(C)c(NP(C)(=O)Oc2ccccc2)c1 (stereo not drawn) | inactive: 0%
10 | CP(=O)(Oc1ccc(Cl)cc1)Oc1ccc(Cl)cc1 | inactive: 0.9%
11 | CP(=O)(Nc1ccccc1F)Oc1ccccc1 (stereo not drawn) | inactive: 9.9%
12 | CCOP(C)(=S)SCC(=O)NC(C)(CC)C(=O)O (stereo not drawn) | inactive: -6.2%
13 | CP(=O)(Nc1ccc2c(c1)OCCO2)Oc1ccccc1 (stereo not drawn) | inactive: 1.5%
14 | Cc1ccccc1NP(C)(=O)Nc1ccccc1C | inactive: -2.4%
15 | CP(=O)(Oc1ccc(F)cc1)Oc1ccc(F)cc1 | inactive: 2.2%
16 | CN(C)CCOC(=O)C(O)(c1ccccc1)C1CCCCC1 (stereo not drawn) | inactive: -6.6%
17 | CCN(CC)CC(O)COC(=O)C(O)(c1ccccc1)C1CCCCC1 (stereo not drawn) | inactive: 3.9%
18 | COc1ccccc1OP(C)(=O)Nc1c(C)n(C)n(-c2ccccc2)c1=O (stereo not drawn) | inactive: -12.8%
19 | CP(=O)(Oc1ccccc1)N1CCOC1=O (stereo not drawn) | inactive: -1.9%
20 | CP(=O)(Nc1ccccn1)Oc1ccccc1 (stereo not drawn) | inactive: -3.5%
21 | CCc1ccc(OP(C)(=O)O)cc1 | inactive: 5.7%
22 | COc1ccccc1OP(C)(=O)Nc1ccc(C)c(C)c1 (stereo not drawn) | inactive: -6.9%
23 | Cc1nc2ccc3ccccc3c2o1.O=[N+]([O-])c1cc([N+](=O)[O-])c(O)c([N+](=O)[O-])c1 | inactive: 0.3%
